# Bioassay records: PubChem BioAssay, National Center for Advancing Translational Sciences (NCATS)
# TDP1 cell noCPT: qHTS for Inhibitors of human tyrosyl-DNA phosphodiesterase 1 (TDP1): qHTS in cells in absence of CPT; DT40 Tdp1-/- hTDP1 cells, no CPT, ATP luminescence, 48 h; Potency, µM (highest dose often 46.2 µM), hits mostly inhibitors; actives 15% (n = 420,000); also: nearly all actives have a fitted effect of over 55% in size
#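 Cells were dispensed at 400 per well, compounds added by pin tool, plates incubated ≥48 hr at 37 °C, then CellTiter-Glo added for 30 min at room temperature before luminescence reading. Line: DT40 Tdp1-/- complemented with hTDP1; camptothecin omitted.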
# miR-21 FLuc: miR-21 reporter, rising signal; Potency, µM (titrated, usually from 38.3 µM); AID 2288; 340,000 tested, under 10 active; HeLa miR-21 FLuc reporter, luciferase, 48 h; active = well fitted rising curve with a large enough effect; inconclusive = small, poorly fitted or top-dose-only effect; inactive = no such curve, though single readings can be large or run the other way;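 note: miR-21 action dims this reporter so a rising signal means less miR-21 action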
#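 HeLa miR-21-FLuc reporter line, endogenous miR-21; 2000 cells/well in DMEM/10% FBS; compound titration up to ~40uM final, 48 h, 37 degree Celsius; luciferase detection reagent, 15 min lysis, CCD luminescence.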
# uPA generation: inhibitors of cell surface uPA generation; cell surface uPA generation assay, qHTS; AID 540303; Potency, µM (titrated, usually from 38.3 µM), most hits filed as inhibitors; actives 0.31% (n = 330,000); active = well fitted inhibition curve with a large enough effect; inconclusive = small, poorly fitted or top-dose-only effect; inactive = no such curve, though single readings can be large or run the other way; tested in mouse RAW 264.7 cells; also: nearly all actives have a fitted effect of over 55% in size
# TDP1 inh: blocks human tyrosyl-DNA phosphodiesterase 1. Q9NUW8. actives 0.28% (n = 350,000). AID 485290. recombinant TDP1, AlphaScreen DNA substrate cleavage. Potency, µM (highest dose often 130 µM), most hits filed as inhibitors; also: nearly all actives have a fitted effect of over 40% in size
#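 Here, a 5' biotin and 3' phosphotyrosine-FITC DNA oligonucleotide reports Tdp1 activity: intact substrate bridges AlphaScreen beads, while cleavage leaves a 3' phosphate and drops signal. All incubations at room temperature.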
# TDP1 cell CPT: DT40-hTDP1 cell growth loss with CPT. chicken DT40 Tdp1-/-;hTDP1 cells + 20 nM CPT, ATP luminescence, 48 h. Potency, µM (highest dose often 46.2 µM), actives largely listed as inhibitors. actives 12% (n = 420,000). AID 686979; also: nearly all actives have a fitted effect of over 55% in size
#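 Cell growth measured by CellTiter-Glo luminescence after a minimum 48 h, 37 C compound exposure with 20 nM CPT in Tdp1-knockout DT40 cells stably expressing hTDP1, seeded 400/well; qHTS titration format.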
# Numbers stand for hits; - = inactive; ? = inconclusive; . = no result. Only some compounds are listed: those with a hit (about 16% of all), similar ones and a draw of the others. Unless noted, calls follow the shape of the dose curve; as a rule, active = well fitted curve in the direction sought with a large enough effect; inconclusive = small, poorly fitted or top-dose-only effect, or another doubt; inactive = no such curve, though single readings can be large; an effect the other way counts as inactive or inconclusive.
SMILES,TDP1 cell noCPT,miR-21 FLuc,uPA generation,TDP1 inh,TDP1 cell CPT
C=C1[C@@H](O)[C@@H]2O[C@]3(CC[C@H](/C=C/[C@@H](C)[C@@H]4CC(C)=CC5(O[C@H](C[C@@](C)(O)C(=O)OC)CC[C@H]5O)O4)O3)CC[C@H]2O[C@@H]1[C@@H](O)C[C@H](C)[C@H]1OC2(CCCCO2)CC[C@H]1C (some centres not stated),0.92µM,.,?,-,0.581µM
COc1cccc(CN(C)S(=O)(=O)c2ccccc2Br)c1,-,.,-,-,-
COc1cccc(CN(CCC(C)C)S(=O)(=O)c2cc(Br)ccc2Br)c1,16.4µM,.,-,.,18.4µM
O=C(O)c1ccc(-c2sc(Nc3ccccc3)n[n+]2-c2ccccc2)cc1,-,-,-,.,-
CCc1ccc(Nc2n[n+](-c3ccccc3)c(-c3ccc(OCc4ccccc4)cc3)s2)cc1,5.17µM,-,?,.,4.61µM
CN(C)c1ccc(-c2sc(Nc3ccccc3)n[n+]2-c2ccc(F)cc2)cc1,?,-,-,.,?
CCN(CC)c1ccc(-c2sc(Nc3ccccc3)n[n+]2-c2ccc(F)cc2)cc1,25.9µM,-,-,.,?
c1ccc(COc2ccc(-c3sc(Nc4ccccc4)n[n+]3-c3ccccc3)cc2)cc1,.,-,.,.,.
CCc1ccc(Nc2n[n+](-c3ccccc3)c(-c3ccc(N(CC)CC)cc3)s2)cc1,9.2µM,-,?,.,6.51µM
Cc1cc2c(c(=O)o1)C(c1cccs1)C(C#N)=C(N)O2 (configuration not stated),18.4µM,-,-,-,23.1µM
COc1cc(C2C(C#N)=C(N)Oc3cc(C)oc(=O)c32)cc2c1OCO2 (configuration not stated),-,-,-,.,-
Cc1ccc([C@H]2C(C#N)=C(N)Oc3cc(C)oc(=O)c32)o1,23.1µM,-,-,-,16.4µM
COc1cc(C2C(C#N)=C(N)Oc3cc(C)oc(=O)c32)cc(OC)c1OC (configuration not stated),23.1µM,-,-,-,?
COc1cc(C2C(C#N)=C(N)Oc3cc(N)ccc32)cc(OC)c1OC (configuration not stated),0.651µM,-,-,-,0.92µM
COc1cccc(CNC(=O)Cc2c(C)c3c(cc(C)c4c(C)c(C)oc43)oc2=O)c1,-,-,.,-,-
Cc1ccc(SCc2[nH]nc3c2C(c2ccco2)C(C#N)=C(N)O3)cc1 (configuration not stated),?,-,-,-,?
Cc1ccc(SCc2[nH]nc3c2C(c2ccc(C)o2)C(C#N)=C(N)O3)cc1 (configuration not stated),16.4µM,-,.,-,16.4µM
Cc1ccc(NC(=O)C2CCCN(S(=O)(=O)c3c(C)n[nH]c3C)C2)c(C)c1 (configuration not stated),-,-,.,-,-
COc1ccc(S(=O)(=O)N(C)C[C@H]2Oc3c(NC(=O)Nc4c(C)noc4C)cccc3C(=O)N([C@@H](C)CO)C[C@H]2C)cc1,?,.,-,-,-
CC(=O)Nc1ccc(CNc2nc3cc(-c4ccsc4)sc3c(=O)n2C)cc1,?,.,.,.,-
COCCNc1nc(NCc2ccc(NC(C)=O)cc2)c2sc(-c3ccccc3)cc2n1,4.11µM,.,.,.,3.26µM
COCCNc1nc(Oc2ccc(CC(=O)OC)cc2)c2sc(-c3ccccc3)cc2n1,18.4µM,.,.,.,?
COCCNc1nc(NCc2cccc(OC)c2)c2sc(-c3ccccc3)cc2n1,13µM,.,.,.,18.4µM
COC(=O)Cc1ccc2sc(-c3ccccc3)nc2c1,-,-,-,-,-
CC(C)(C)NC(=O)Cn1cc(S(=O)(=O)Cc2ccccc2Cl)c2ccccc21,?,-,.,-,?
COc1ccccc1NC(=O)NC(=O)c1ccccc1,?,-,-,-,-
Cc1c(C(c2cc(O)ccc2O)c2c(C)n(C)n(-c3ccccc3)c2=O)c(=O)n(-c2ccccc2)n1C,?,.,-,.,-
COc1ccccc1CCn1cnc(-c2ccc(OC)c(OC)c2)c1C(C)C,5.8µM,.,.,.,8.2µM
CCc1ccccc1Oc1nc2cc(-c3cccc(OC)c3)sc2c(=O)n1C,-,.,.,.,?
COc1ccc(-c2nn(-c3ccccc3)cc2C(=O)O)cc1OC,-,-,-,-,-
